Test results published in PubChem BioAssay AID493244 (The Scripps Research Institute Molecular Screening Center, 2011).
Only a part is listed here, and it is no random draw. Some tests of the compounds listed are not included; inactive here does not mean inactive elsewhere. Active and inactive are the calls of the source.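 Rule for the calls: active = inhibition above the mean inhibition of all tested compounds plus 3 SD (cut at about 17% in these data); inactive = the rest.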

Target: Troponin I, cardiac muscle (Homo sapiens) + Troponin T, cardiac muscle (Homo sapiens) + Troponin C, slow skeletal and cardiac muscles (Homo sapiens) (UniProt P19429+P45379+P63316)
Experiment: calcium desensitizers of cardiac thin filaments – biochemical, IANBD-TnC fluorescence, EC70 calcium, primary screen (AID 493244)
Conditions: IANBD-labeled cardiac RTF, Ca2+ fluorescence; at 7.15 µM; stronger effect = higher value

Row | Compound | inhibition
1 | O=C(OC1CN2CCC1CC2)C(CO)(c1ccccc1)c1ccccc1 (stereo not given) | inactive: -12.2%
2 | CN(C)c1cccc(C(=O)NCC2(N(C)C)CCCCC2)c1 | inactive: -5.61%
3 | CC(C)Oc1ccc(C(=O)NCC2(N(C)C)CCCCC2)cc1 | inactive: -0.72%
4 | O=C(OCCN1CCCC1)C(O)(c1ccccc1)c1ccccc1 | inactive: -8.31%
5 | COc1ccc(Br)c(C(=O)NCC2(N3CCCCC3)CCCCC2)c1 | inactive: 3.99%
6 | COc1cc(C(=O)NCC2(N(C)C)CCCCC2)c([N+](=O)[O-])cc1OC | inactive: -11.2%
7 | CN(C)C1(CNC(=O)c2ccc(Br)cc2)CCCCC1 | inactive: 1.56%
8 | O=C(NCC1(N2CCCCC2)CCCCC1)c1cccc(Cl)c1 | inactive: 2.73%
9 | COc1cccc(C(=O)NCC2(N3CCCCC3)CCCCC2)c1 | inactive: -7.83%
10 | COc1ccc(Cl)cc1C(=O)NCC1(N(C)C)CCCCC1 | inactive: -2%
11 | Cc1ccccc1C(=O)NCC1(N2CCCCC2)CCCCC1 | inactive: 5.19%
12 | CN(C)c1ccc(C(=O)NCC2(N(C)C)CCCCC2)cc1 | inactive: 2.45%
13 | CN(C)C1CCCC1OC(=O)C(O)(c1ccccc1)c1ccccc1 (stereo not given) | inactive: 5.85%
14 | CCN1CCCC(OC(=O)C2(O)c3ccccc3C=Cc3ccccc32)C1 (stereo not given) | inactive: -4.99%
15 | Cc1cc(C(=O)NCC2(N3CCCCC3)CCCCC2)ccc1[N+](=O)[O-] | inactive: -9.05%
16 | O=C(NCC1(N2CCCCC2)CCCCC1)c1cccc(Br)c1 | inactive: -19%
17 | COc1ccc(C(=O)NCC2(N(C)C)CCCCC2)cc1 | inactive: -13.2%
18 | C=CCN1CCN(CCOC(=O)C(O)(c2ccccc2)c2ccccc2)CC1 | inactive: -12.4%
19 | O=C(NCC1(N2CCCCC2)CCCCC1)c1cc(F)c(F)cc1Cl | inactive: -12.6%
20 | CN1[C@@H]2CC[C@H]1CC(OC(=O)C(O)(c1ccccc1)c1ccccc1)C2 (stereo not given in full) | inactive: 0.72%
21 | O=C(NCC1(N2CCCCC2)CCCCC1)c1cc([N+](=O)[O-])ccc1Cl | inactive: 5.71%
22 | Cc1ccc(C(=O)NCC2(N3CCCCC3)CCCCC2)cc1 | inactive: -3.98%
23 | CC(C)N1C(=O)CC2(CCN(CCOC(=O)C(O)(c3ccccc3)c3ccccc3)CC2)C1=O | inactive: -5.78%
24 | CCN(CC)CC(C)C(C)OC(=O)C(O)(c1ccccc1)c1ccccc1 (stereo not given) | inactive: -3.56%
25 | COc1cc(SC)ccc1C(=O)NCC1(N(C)C)CCCCC1 | inactive: -2.24%
